Results taken from patent US12612362B2, “Anisomycin derivative and use of anisomycin and derivative thereof as GLP-1R agonist” (SHANXI MEDICAL UNIVERSITY, priority 2021, dated 2026).

Chains of the proteins cited; added tags and fusions are not shown. Residues count along the entry.
UniProt P32301, 22-463: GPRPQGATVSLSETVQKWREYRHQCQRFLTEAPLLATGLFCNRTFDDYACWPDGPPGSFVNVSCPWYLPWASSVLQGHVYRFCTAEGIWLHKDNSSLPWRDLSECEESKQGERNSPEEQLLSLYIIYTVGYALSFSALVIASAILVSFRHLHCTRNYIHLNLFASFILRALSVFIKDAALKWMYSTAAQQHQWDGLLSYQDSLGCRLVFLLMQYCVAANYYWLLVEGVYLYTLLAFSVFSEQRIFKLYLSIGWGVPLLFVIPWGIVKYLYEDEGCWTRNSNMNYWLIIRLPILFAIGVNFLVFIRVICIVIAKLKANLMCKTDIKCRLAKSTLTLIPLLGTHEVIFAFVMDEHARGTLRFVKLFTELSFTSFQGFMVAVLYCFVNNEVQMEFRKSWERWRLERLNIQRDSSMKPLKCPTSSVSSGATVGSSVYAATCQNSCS

Molecular target: GLP-1R (Rattus norvegicus, UniProt P32301)
Details: 11.1G, 10 μM anisomycin + 100 nM Exendin(9-39), n=7

## COc1ccc(C[C@H]2NC[C@H](O)[C@H]2OC(C)=O)cc1 [anisomycin, (2R,3S,4S)-2-[(4-methoxyphenyl)methyl]-3,4-pyrrolidinediol 3-acetate methyl ester]
  effect of promoting insulin secretion in presence of Exendin(9-39): Exendin(9-39) blocks the effect of anisomycin promoting insulin secretion
